Laboratory results taken from ChEMBL document CHEMBL1129333, “Synthesis and biological activities of flavonoid derivatives as A3 adenosine receptor antagonists” (J Med Chem, 1996).

Test system: Adenosine A1 receptor (Rattus norvegicus) / A3 receptor (Homo sapiens)
Assay: Ratio of binding affinities between rA1 and human A3.

Cc1cc(C)c(-c2oc3ccc(Cl)cc3c(=O)c2Cl)c(C)c1
Ratio: 20
